Tests used:
PEX13 SH3 domain (human) [1] = molecular target: PEX13 SH3 domain (human) (UniProt Q92968); test: ITC; PEX13 SH3 (35-48 uM) in the cell, peptide or fragment in the syringe; 25 °C, 20 mM Tris pH 7.5, 50 mM NaCl; one-site binding model; single runs of triplicates and their averages
[2] = molecular target: PEX13 SH3 domain (residues 261-346) (human) (UniProt Q92968); test: ITC; PEX13 SH3 (35-48 µM) in the cell, titrated with peptide; 25 °C; 20 mM Tris pH 7.5, 50 mM NaCl; one-site binding model; triplicates
PEX13 SH3 domain (human) [3] = molecular target: PEX13 SH3 domain (human) (UniProt Q92968); test: ITC; PEX13 SH3 at 35-48 µM titrated with PEX5 15-mer peptides or PEX5 1-76 (0.6-0.7 mM) or PEX13 350-403 (0.9-1 mM); 25 °C; 20 mM Tris pH 7.5, 50 mM NaCl; one-site model; triplicates
[4] = molecular target: PEX5, cellular (T-REx 293 PEX13 KO cells) (human (endogenous in T-REx 293)) (UniProt P50542); test: co-IP; lysates of T-REx 293 PEX13 KO cells transfected with PEX13 variants; mouse PEX5 antibody coupled to dynabeads; 25 mM Tris/HCl pH 7.4, 150 mM NaCl, 1 % NP-40, 5 % glycerol; 1 h at 4 °C; immunoblot

stoichiometry N (PEX13 SH3 domain (human) [1]) [sites]	stoichiometry N [2]	Kd (PEX13 SH3 domain (human) [3]) [µM]	fold PEX5-bound PEX13 against PEX13 FL [4] [fold]	Substance
1	1	102	–	PEX5 W3 peptide
–	–	–	5	PEX13 ΔCTR (domain or fragment)
1	1	43	–	PEX5 W4 peptide
1	1	88	–	PEX5 W2 peptide
–	–	–	3.5	PEX13 FF/A5 (FxxxF motif replaced by polyA), expressed in cells (from UniProt Q92968 1-403) (natural protein)

— article PMC11024197, “Modulation of peroxisomal import by the PEX13 SH3 domain and a proximal FxxxF binding motif” (Nature Communications, 2024)
